Tests used:
hERG [1] = target: T1, hERG (Homo sapiens, UniProt Q12809); experiment: Tox21 qHTS FluxOR thallium flux assay in hERG-U2OS cells
hERG [2] = target: T1, hERG; experiment: cell-based; conditions: (-LOG10(IC50), µM)

Amino acid sequences for entries named in this document (tags omitted). A change or cut given only in a name is not applied to a line headed by its entry.
UniProt Q12809: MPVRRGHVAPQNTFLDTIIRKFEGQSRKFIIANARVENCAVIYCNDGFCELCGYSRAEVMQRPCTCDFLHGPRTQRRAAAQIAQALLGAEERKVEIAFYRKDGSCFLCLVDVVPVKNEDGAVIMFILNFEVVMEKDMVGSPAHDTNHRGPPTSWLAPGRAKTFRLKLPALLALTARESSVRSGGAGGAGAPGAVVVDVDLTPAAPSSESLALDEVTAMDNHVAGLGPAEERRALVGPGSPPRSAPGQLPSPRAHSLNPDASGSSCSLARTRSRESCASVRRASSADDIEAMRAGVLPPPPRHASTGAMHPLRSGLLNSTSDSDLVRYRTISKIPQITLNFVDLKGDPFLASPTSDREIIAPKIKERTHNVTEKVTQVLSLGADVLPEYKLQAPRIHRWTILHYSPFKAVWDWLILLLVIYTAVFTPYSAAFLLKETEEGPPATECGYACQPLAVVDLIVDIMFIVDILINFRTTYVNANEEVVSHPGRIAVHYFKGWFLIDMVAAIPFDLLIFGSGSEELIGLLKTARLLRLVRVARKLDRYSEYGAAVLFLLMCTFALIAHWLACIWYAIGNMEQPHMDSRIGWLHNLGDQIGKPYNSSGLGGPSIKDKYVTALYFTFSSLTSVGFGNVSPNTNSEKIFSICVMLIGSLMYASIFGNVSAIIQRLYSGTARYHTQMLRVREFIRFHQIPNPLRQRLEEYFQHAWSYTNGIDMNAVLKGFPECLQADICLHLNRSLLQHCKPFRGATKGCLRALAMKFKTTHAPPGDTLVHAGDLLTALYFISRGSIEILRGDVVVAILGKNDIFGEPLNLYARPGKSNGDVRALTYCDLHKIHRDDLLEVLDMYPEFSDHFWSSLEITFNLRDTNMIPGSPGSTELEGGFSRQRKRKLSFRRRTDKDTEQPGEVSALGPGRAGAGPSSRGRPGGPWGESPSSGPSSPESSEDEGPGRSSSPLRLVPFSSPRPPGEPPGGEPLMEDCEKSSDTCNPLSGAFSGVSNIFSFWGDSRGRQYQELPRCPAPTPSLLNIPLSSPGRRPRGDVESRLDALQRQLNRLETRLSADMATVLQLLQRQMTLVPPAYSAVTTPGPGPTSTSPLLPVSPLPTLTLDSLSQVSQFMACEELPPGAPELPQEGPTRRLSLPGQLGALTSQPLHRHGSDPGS

SMILES | IC50 (hERG [1]; 15 concentrations, three runs) [nM] | activity outcome for hERG inhibition in the assay (hERG [1]; result in words) | IC50 (hERG [2]) [µM]
CC(C)COCC(CN(Cc1ccccc1)c1ccccc1)N1CCCC1 (stereo not drawn) [Bepridil] | 550 | demonstrated activity | –
Cn1cc(C2=C(c3cn(C4CCN(Cc5ccccn5)CC4)c4ccccc34)C(=O)NC2=O)c2ccccc21 [Enzastaurin] | – | – | 1.51

From article PMC8869358, “High-Throughput Chemical Screening and Structure-Based Models to Predict hERG Inhibition” (Biology, 2022)
